# Shown are actives, neighbours in structure and some others; about 1.3% of the full set was active somewhere.
# GSIS activator – primary screen for activators of insulin secretion dependent on glucose, INS-1E cells, GLuc reporter luminescence; INS-1E GLuc reporter insulin secretion, 2-3 h; activation, % at 16.6 µM; 0.61% of 370,000 active; AID 743287;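 active means lowest replicate activation of at least 40%, so every replicate reaches that level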
# UUG fidelity – alters start codon recognition fidelity in yeast. S. cerevisiae UUG-firefly luciferase reporter, luminescence/redox ratio. AID 602363. activity score, % at 18.7 µM. hit rate 0.13% among 350,000;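 active = replicate mean at a twofold rise or more, about +100% in these data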;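 note: firefly luciferase made from a UUG start codon reports start codon fidelity; reporter light over untreated wells divided by growth signal over untreated wells; some hits fall short of that in this replicate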
# SR-BI uptake up – activators of SR-BI mediated HDL lipid uptake; CHO ldlA[mSR-BI] cells, DiI-HDL uptake fluorescence, 3 h; 100 = double the neutral-control signal; activation, % at 12.5 µM; 0.096% of 320,000 active;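 active means mean replicate activation of at least 60% and every replicate at or above 60%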
#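 Material: SR-BI-overexpressing, LDLR-lacking CHO cells; schedule: compound exposure 3 h, 37 °C; reagent: DiI-labelled HDL at 10 µg/mL final; technique: bottom-read fluorescence, 550/595 nm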
# SR-BI DiI inh – inhibitors of mouse SR-BI mediated HDL lipid uptake. Q61009. ldlA[mSR-BI] CHO cells, DiI-HDL uptake fluorescence, 3 h. inhibition, % at 12.5 µM. 0.96% of 320,000 active;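 active means mean replicate inhibition of at least 70% and a set share of replicates each scoring 70 or more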
# Numbers stand for hits; i = inactive; nt = no result given.
SMILES,GSIS activator,UUG fidelity,SR-BI uptake up,SR-BI DiI inh
O=C(CSc1nc(-c2ccccc2)c(-c2ccccc2)o1)N1CCOCC1,nt,111,i,i
O=C(CSc1nnc(-c2ccccc2)c(-c2ccccc2)n1)N1CCOCC1,nt,i,i,i
CCC(=O)N(C)C[C@H]1Oc2cc(-c3ccncc3)ccc2S(=O)(=O)N([C@H](C)CO)C[C@@H]1C,i,i,nt,nt
C[C@@H]1CN([C@H](C)CO)C(=O)c2cc(C#CC3CCCC3)cnc2O[C@H]1CN(C)C(=O)Cc1ccccn1,i,i,nt,nt
COc1ccccc1CN1C(=O)[C@@H]2Cc3c([nH]c4ccccc34)C(C)(C)N2C1=O,i,i,i,76
CC1(C)c2[nH]c3ccccc3c2C[C@@H]2C(=O)N(c3cc(F)ccc3F)C(=O)N21,i,i,i,77
COc1ccc2c3c([nH]c2c1)[C@@H](CO)N(C(C)=O)CC31CN(C(=O)c2ccc3c(c2)OCO3)C1,i,nt,nt,nt
COc1cccc(/C=N/n2c(=S)n(C)c3ccccc32)c1OC,nt,nt,i,i
Cn1c(=S)n(/N=C/c2cccs2)c2ccccc21,i,i,262,i
O=C(C1CCC1)N1CC(=O)N2[C@@H](CO)[C@@H](c3ccc(C4=CCCCC4)cc3)[C@@H]2C1,i,nt,nt,nt
CCn1c(C)nc2cc(C(=O)N/N=C/c3ccc(O)c(O)c3O)ccc21,i,nt,i,i
CCC(=NNC(=O)c1ccc2c(c1)nc(C)n2CC)c1cc(F)ccc1O,i,nt,i,114
CCC(=O)N(C)C[C@H]1Oc2ncc(C#CCc3ccccc3)cc2C(=O)N([C@H](C)CO)C[C@@H]1C,i,i,nt,nt
O=C1N(c2ccccc2)c2ccccc2[C@]12C[C@H](O)CO2,55,nt,nt,nt
O=C(Cc1ccccc1)N[C@@H]1CC[C@H](CC(=O)N2CCOCC2)O[C@@H]1CO,i,i,nt,nt
COc1ccc2c(-c3ccc(SC)cc3)c(-c3ccc(S(C)(=O)=O)cc3)sc2c1,i,i,i,81
COc1cc2sc(-c3ccc(S(C)(=O)=O)cc3)c(-c3ccc4c(c3)OCO4)c2cc1OC,i,i,i,83
COc1ccc(-c2nnn(Cc3nc(N)nc(N4CCOCC4)n3)n2)cc1OC,96,i,nt,nt
COc1ccc(-c2noc(CN3CCOCC3)n2)cc1OC,i,i,i,i
COc1ccc(NC(=O)N2CC3(C2)CN(CC2CC2)[C@@H](CO)c2c3c3ccc(OC)cc3n2C)cc1,i,nt,nt,nt
C/C=C/c1ccc(OCCN2C(=O)NC(C)(C)C2=O)c(OC)c1,44,i,i,i
O=C(Nc1cccc(S(=O)(=O)N2CCOCC2)c1)c1cccc(S(=O)(=O)N2CCCCC2)c1,i,i,i,i
COc1ccc(NC(=O)c2ccc(=O)[nH]c2)cc1S(=O)(=O)N1CCCCC1,i,nt,nt,nt
O=C(COC(=O)c1ccc(F)c(S(=O)(=O)N2CCOCC2)c1)c1ccc(Cl)cc1,i,i,i,i
Cc1ccc(NC(=O)c2ccc(=O)[nH]c2)cc1S(=O)(=O)N1CCCCCC1,nt,i,i,80
SMILES,GSIS activator,UUG fidelity,SR-BI uptake up,SR-BI DiI inh
CCOC(=O)c1ccc(NC(=O)c2cccc(S(=O)(=O)N3CCOCC3)c2)cc1,nt,i,i,83
O=C(Nc1ccc(N2CCCCCC2)cc1)c1cccc(S(=O)(=O)N2CCOCC2)c1,i,nt,i,71
CCOC(=O)c1c(C)[nH]c(C(=O)COC(=O)c2ccc(F)c(S(=O)(=O)N3CCOCC3)c2)c1C,nt,i,i,74
CC(C)NC(=O)N(C)C[C@H]1Oc2ccc(NC(=O)C3CCCCC3)cc2C(=O)N([C@H](C)CO)C[C@H]1C,i,i,nt,nt
Cc1ccc(C(=O)Nc2ccc(N3CCOCC3)cc2)cc1S(=O)(=O)N1CCCCC1,nt,i,i,i
CC(=O)c1ccc(NC(=O)c2ccc(C)c(S(=O)(=O)N3CCOCC3)c2)cc1,i,i,i,85
CCOc1ccc(CCNC(=O)c2ccc(Cl)c(S(=O)(=O)N3CCOCC3)c2)cc1OCC,i,i,i,73
O=C(Nc1ccc(N2CCOCC2)cc1)c1cc2c(s1)CCCCC2,i,nt,i,88
CCOC(=O)c1ccc(NC(=O)c2ccc(C)c(S(=O)(=O)N3CCOCC3)c2)cc1,nt,nt,i,87
O=C(Nc1ccccc1N1CCOCC1)c1cc2c(s1)CCCCC2,i,nt,i,i
Cc1ccc(C(=O)Nc2cccnc2)cc1S(=O)(=O)N1CCOCC1,nt,i,i,i
CN(c1ccccc1)S(=O)(=O)c1cccc(C(=O)Nc2ccc(N3CCOCC3)cc2)c1,i,i,i,86
Cc1ccc(C(=O)Nc2cccc(S(=O)(=O)N3CCOCC3)c2)cc1[N+](=O)[O-],i,i,i,77
O=C(NNC(=O)c1cc(Cl)ccc1O)c1cccc(S(=O)(=O)N2CCOCC2)c1,i,i,i,107

# From PubChem
